# Apparent affinities of Ab-14 variants for a coronavirus HR2 peptide

Antigen: PDVDLGDISGINAS, a 14-residue peptide of the SARS-CoV-2 spike HR2 region.

Parent scFv Ab-14: VH joined to VL by a 15-residue (Gly4Ser)3 linker. Changes lie in the heavy chain CDRs alone.
VH: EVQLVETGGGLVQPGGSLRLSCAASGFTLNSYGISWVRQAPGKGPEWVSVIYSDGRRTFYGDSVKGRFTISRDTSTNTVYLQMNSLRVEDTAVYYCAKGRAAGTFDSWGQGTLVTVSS
VL: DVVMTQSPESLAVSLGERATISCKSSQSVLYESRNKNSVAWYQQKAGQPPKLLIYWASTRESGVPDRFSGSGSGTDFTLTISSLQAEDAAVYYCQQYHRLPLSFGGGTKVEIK

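The parent was found by panning a naive human phage display library on the peptide. The variants were designed computationally from a first round of random CDR variants and then made and measured. Several design methods are mixed in this list. The assay is AlphaSeq: two haploid yeast populations carry antibody and antigen on their surface. The frequency of each diploid, read from paired DNA barcodes, reflects how well the two displayed proteins bind. Each replicate has its own calibration line, from reference interactions of the BCL2 family. There are six technical replicates.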

Substitutions are numbered in sequence along the VH above, starting at 1 (not Kabat). Variants here have at most six changes. Values are apparent Kd, the geometric mean of the replicates that gave a signal; lower means stronger binding. "no signal" means that the variant was in the library but no mating with the target was seen in any replicate; the authors take this as a sign of poor binding, and no number exists. Entries are sorted by rising average, undetected variants last. The authors averaged sequences with at least three values out of six and counted those with two or fewer as poor binders. A sequence that the file lists under several names has all its replicates pooled. Empty control strains, which show no peptide, gave a signal in 1% of pairings with all heavy chain designs; the median was 120 nM and 95% of these signals were weaker than 7.0 nM. No background was subtracted. Values of this round are not directly comparable with the first-round values of the same sequences. The parent sequence was in this pool as ten entries: three were never detected, three once, and four in most replicates, with averages from 2.2 nM to 240 nM.

For T28S/S31E/R56K/S63D/A101Q, the assay gave 65 pM (2 of 6 replicates).
For T28D/S31E/S53A/G61A/R100K/A101I, the assay gave 240 pM (6 of 6 replicates).
For T28S/S31D/D106W, the assay gave 770 pM (6 of 6 replicates).
For T28E/S31M/G61A/R100Q/A101T, the assay gave 910 pM (6 of 6 replicates).
For T28D/R100H, the assay gave 1.2 nM (10 of 12 replicates).
For T28E/S31D/G61A/S63E/A101T, the assay gave 1.3 nM (6 of 6 replicates).
For S31E/G61T/A101T/D106S, the assay gave 1.4 nM (6 of 6 replicates).
For T28S/S63P/R100I/A101T, the assay gave 1.4 nM (5 of 6 replicates).
For S31E/R56L/A101T, the assay gave 1.4 nM (6 of 6 replicates).
For T28G/S31E/G61T/A101E, the assay gave 1.9 nM (6 of 6 replicates).
For F27T/T28K, the assay gave 2.2 nM (6 of 6 replicates).
For G61D/S107V, the assay gave 2.4 nM (3 of 6 replicates).
For T28S/S31D/D106M, the assay gave 3.2 nM (6 of 6 replicates).
For T28S/S31E/G61C, the assay gave 3.6 nM (6 of 6 replicates).
For T28G/S31E/G61E/S63D/A101T, the assay gave 4.5 nM (6 of 6 replicates).
For G61H/R100E, the assay gave 5.1 nM (6 of 6 replicates).
For G61Q/A101L, the assay gave 6.1 nM (5 of 6 replicates).
For T28D/S31M/A101Q, the assay gave 7.8 nM (6 of 6 replicates).
For T28D/Y32H/S107V, the assay gave 11 nM (5 of 6 replicates).
For T28N/S31T/A101Q, the assay gave 12 nM (6 of 6 replicates).
For T28W/S31D/A101M, the assay gave 21 nM (6 of 6 replicates).
For T28S/G61T/A101W, the assay gave 25 nM (6 of 6 replicates).
For N30D/A101T, the assay gave 28 nM (6 of 6 replicates).
For T28Q/R100K/A101T/S107F, the assay gave 29 nM (5 of 6 replicates).
For R100V/D106P, the assay gave 30 nM (3 of 6 replicates).
For S31M/F59M/G61I, the assay gave 38 nM (2 of 6 replicates).
For G61D/S63E/R100Q/A101L, the assay gave 53 nM (6 of 6 replicates).
For R56Y/R100Q/F105M, the assay gave 54 nM (4 of 6 replicates).
For N30T/R100K/A101N, the assay gave 61 nM (2 of 6 replicates).
For G61D/K65A, the assay gave 66 nM (6 of 6 replicates).
For T28H/G61Q/R100Q, the assay gave 86 nM (5 of 6 replicates).
For N30E/G61D/S63D/R100K, the assay gave 100 nM (3 of 6 replicates).
For S31Q/S53T/G61S/T104F, the assay gave 170 nM (1 of 6 replicates).
For T28E/S31M/R100Q/S107K, the assay gave 190 nM (1 of 6 replicates).
For S31L/R56Y/F59M/G103V, the assay gave no signal (0 of 6 replicates).
For S31E/F59M/G61M/A101C, the assay gave no signal (0 of 6 replicates).
For T28E/N30E/G99E/D106F, the assay gave no signal (0 of 6 replicates).
For T28Q/S31D/G61I/S63W/R100K, the assay gave no signal (0 of 6 replicates).
For S31D/G61I/G99D, the assay gave no signal (0 of 6 replicates).
For R100S/A102M/G103I, the assay gave no signal (0 of 6 replicates).
For T28V/G61I/R100K, the assay gave no signal (0 of 6 replicates).
For S53K/F105N/D106K, the assay gave no signal (0 of 6 replicates).

Data: MIT Lincoln Laboratory AlphaSeq set, Li et al. 2023, doi:10.1038/s41467-023-39022-2, as distributed in FLAb.